The target in experiment [1] is T1, Advanced glycosylation end product-specific receptor (Homo sapiens, UniProt Q15109). The experiment is described as follows: Inhibition of […] binding to RAGE (unknown origin) by ELISA.
For experiment [2], the target named is T1, Advanced glycosylation end product-specific receptor. As to the kind of experiment: Inhibition of amyloid beta binding to RAGE (unknown origin) by ELISA.
Experiment [3] has the same target. As to the kind of experiment: Inhibition of CML binding to RAGE (unknown origin) by ELISA.
Experiment [4] shares this target. As to the kind of experiment: Binding affinity to human RAGE cytoplasmic domain by tryptophan fluorescence assay.

Sequences of proteins named here, by UniProt entry; tags and fusion partners are left off. A change or cut given only in a name is not applied to a line headed by its entry.
UniProt Q15109: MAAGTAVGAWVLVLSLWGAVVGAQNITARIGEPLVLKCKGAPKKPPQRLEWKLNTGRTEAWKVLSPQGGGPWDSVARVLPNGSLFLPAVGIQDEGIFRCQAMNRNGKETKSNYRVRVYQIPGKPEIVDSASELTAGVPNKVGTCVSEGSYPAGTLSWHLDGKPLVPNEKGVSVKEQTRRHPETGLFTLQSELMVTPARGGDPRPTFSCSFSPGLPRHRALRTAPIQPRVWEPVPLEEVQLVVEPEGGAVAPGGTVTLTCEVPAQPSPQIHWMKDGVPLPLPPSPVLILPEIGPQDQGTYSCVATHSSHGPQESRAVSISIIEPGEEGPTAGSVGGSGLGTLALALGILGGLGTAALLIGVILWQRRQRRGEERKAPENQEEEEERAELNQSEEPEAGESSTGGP

`CCCCOc1cc(C(=O)OCCN(CC)CC)ccc1NC(=O)[C@H](N)Cc1ccc2ccccc2c1`: the IC50 in experiment [1] was 1750 nM; in experiment [2] it was 3400 nM; in experiment [3], 2290 nM.

With `CC1=NN(c2nc3ccccc3[nH]2)C(=O)C1CCC(C)C` (stereo not given), the Kd in experiment [4] was determined as 3 nM.

Compound `COc1cc(NC(C)=O)c(Cl)cc1C(=O)Nc1nccs1` displayed a Kd in experiment [4] of 0.3 nM.

For the origin of these results see ChEMBL document CHEMBL4028844, “Targeting the Receptor for Advanced Glycation Endproducts (RAGE): A Medicinal Chemistry Perspective” (J Med Chem, 2017).
